Test results published in PMC7659582 (Cell Reports Medicine, 2020).

Protein sequences, listed by entry. Tags and fused reporters are not part of them. Lines headed by an entry give the natural chain unless they say otherwise; changes in a name come on top.
UniProt Q12809: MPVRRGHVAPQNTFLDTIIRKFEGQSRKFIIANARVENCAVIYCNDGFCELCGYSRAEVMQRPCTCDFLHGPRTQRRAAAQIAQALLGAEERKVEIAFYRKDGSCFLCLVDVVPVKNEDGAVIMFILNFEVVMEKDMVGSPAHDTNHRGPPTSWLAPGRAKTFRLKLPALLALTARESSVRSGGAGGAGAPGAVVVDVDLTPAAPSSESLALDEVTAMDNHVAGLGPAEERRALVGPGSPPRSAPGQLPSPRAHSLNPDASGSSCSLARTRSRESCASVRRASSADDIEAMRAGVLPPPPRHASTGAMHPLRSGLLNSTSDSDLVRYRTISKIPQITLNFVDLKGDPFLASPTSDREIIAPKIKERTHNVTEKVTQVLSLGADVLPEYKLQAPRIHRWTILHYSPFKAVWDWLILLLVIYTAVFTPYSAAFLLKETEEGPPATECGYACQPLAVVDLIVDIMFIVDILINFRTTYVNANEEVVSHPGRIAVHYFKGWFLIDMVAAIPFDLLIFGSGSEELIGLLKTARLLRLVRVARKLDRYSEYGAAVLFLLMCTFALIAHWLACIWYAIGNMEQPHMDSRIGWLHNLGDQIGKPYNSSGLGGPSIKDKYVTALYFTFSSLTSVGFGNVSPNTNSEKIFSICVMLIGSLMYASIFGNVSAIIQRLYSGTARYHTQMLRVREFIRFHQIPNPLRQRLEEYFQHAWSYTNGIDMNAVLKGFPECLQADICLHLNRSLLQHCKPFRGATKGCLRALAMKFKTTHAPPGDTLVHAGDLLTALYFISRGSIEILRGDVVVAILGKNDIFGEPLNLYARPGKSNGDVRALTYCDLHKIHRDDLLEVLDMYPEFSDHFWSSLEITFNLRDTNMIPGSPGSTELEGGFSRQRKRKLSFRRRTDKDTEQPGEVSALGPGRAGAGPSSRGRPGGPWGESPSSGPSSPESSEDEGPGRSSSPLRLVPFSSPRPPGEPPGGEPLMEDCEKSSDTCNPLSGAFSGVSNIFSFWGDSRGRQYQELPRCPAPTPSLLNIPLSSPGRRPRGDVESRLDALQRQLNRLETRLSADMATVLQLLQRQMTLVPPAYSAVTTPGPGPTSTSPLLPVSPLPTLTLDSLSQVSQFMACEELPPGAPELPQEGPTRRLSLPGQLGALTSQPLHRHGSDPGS

Biological target: hERG (Homo sapiens, UniProt Q12809)

CC(C)COCC(CN(Cc1ccccc1)c1ccccc1)N1CCCC1 (stereo not shown) [BEPRIDIL] was tested. Which “hERG IC50/Free Cmax Ratio” value did it give?
The value was 1.42.
